In article PMC8920097, “Prediction of hERG inhibition of drug discovery compounds using biomimetic HPLC measurements” (ADMET & DMPK, 2021):

Test: Phospholipid binding at pH 7.4 on IAM PC.DD2 HPLC column
Conditions: pH 7.4, derived from CHI IAM by equation 1

**Q.** With `CN(CCOc1ccc(NS(C)(=O)=O)cc1)CCc1ccc(NS(C)(=O)=O)cc1` [Dofetilide] as the compound, how does the “log k IAM” value read?
**A.** 1.94
